{"source": "PubChem BioAssay AID686970", "about": "(National Center for Advancing Translational Sciences (NCATS), 2013)", "note": "The list shows a part of the results, in another mix than the full data. Inconclusive results are not listed. Active and inactive are the calls of the source. The call rests on the fitted dose curve; in most records, active means well fitted cell-killing curve with a large enough effect; inconclusive means small, poorly fitted or top-dose-only effect, or effect the other way; inactive means flat fitted curve, though single readings scatter. Potency means the concentration at half of the fitted maximal effect."}
{"experiment": "qHTS for induction of synthetic lethality in tumor cells producing 2HG: qHTS for the HT-1080-NT fibrosarcoma cell line;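 further: NT is the 2HG producing partner of a matched IDH1 knockdown line; nearly all actives have a fitted effect of over 55% in size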", "conditions": "HT-1080-NT fibrosarcoma viability, CellTiter-Glo ATP luminescence, 48 h", "text": "Unbiased genomic sequencing for 22 glioma genomes found recurrent mutation of IDH1 on chromosome 2q33, a gene encoding the cytosolic isoform of IDH1 associated with the tricarboxylic acid cycle (TCA) that catalyzes the oxidative decarboxylation of isocitrate, yielding alpha-ketoglutarate and CO2 via NADP+ to NADPH conversion. Subsequent studies confirmed the recurrent IDH mutations in up to 70% of secondary gliomas and in 10% of AML cases. […]\nSuspensions of trypsinized HT-1080-NT cells were dispensed into white, tissue culture-treated, solid 1536-well plates at 5uL/well (750 cells/well final concentration) in RPMI medium supplemented with 5% FBS. […] The plates were measured on a PerkinElmer ViewLux plate reader for luminescent signal (clear filter, 1 sec exp). […]\nConcentration-response curves were fitted to the signals arising from the resulting luminescence. The concentration-effect curves were then classified based on curve quality (r2), response magnitude and degree of measured activity, and compounds were subsequently categorized based on their curve class."}
{"compound": "CC[n+]1c(/C=C/N(C)c2ccccc2)oc2ccccc21", "Potency": "active: 2.06 µM"}
